Experimental data as given in ChEMBL document CHEMBL4725427, “Synthesis and SAR Studies of 1H-Pyrrolo[2,3-b]pyridine-2-carboxamides as Phosphodiesterase 4B (PDE4B) Inhibitors” (ACS Med Chem Lett, 2020).

Protein sequences, listed by entry. Tags and fused reporters are not part of them. Lines headed by an entry give the natural chain unless they say otherwise; changes in a name come on top.
UniProt Q08499: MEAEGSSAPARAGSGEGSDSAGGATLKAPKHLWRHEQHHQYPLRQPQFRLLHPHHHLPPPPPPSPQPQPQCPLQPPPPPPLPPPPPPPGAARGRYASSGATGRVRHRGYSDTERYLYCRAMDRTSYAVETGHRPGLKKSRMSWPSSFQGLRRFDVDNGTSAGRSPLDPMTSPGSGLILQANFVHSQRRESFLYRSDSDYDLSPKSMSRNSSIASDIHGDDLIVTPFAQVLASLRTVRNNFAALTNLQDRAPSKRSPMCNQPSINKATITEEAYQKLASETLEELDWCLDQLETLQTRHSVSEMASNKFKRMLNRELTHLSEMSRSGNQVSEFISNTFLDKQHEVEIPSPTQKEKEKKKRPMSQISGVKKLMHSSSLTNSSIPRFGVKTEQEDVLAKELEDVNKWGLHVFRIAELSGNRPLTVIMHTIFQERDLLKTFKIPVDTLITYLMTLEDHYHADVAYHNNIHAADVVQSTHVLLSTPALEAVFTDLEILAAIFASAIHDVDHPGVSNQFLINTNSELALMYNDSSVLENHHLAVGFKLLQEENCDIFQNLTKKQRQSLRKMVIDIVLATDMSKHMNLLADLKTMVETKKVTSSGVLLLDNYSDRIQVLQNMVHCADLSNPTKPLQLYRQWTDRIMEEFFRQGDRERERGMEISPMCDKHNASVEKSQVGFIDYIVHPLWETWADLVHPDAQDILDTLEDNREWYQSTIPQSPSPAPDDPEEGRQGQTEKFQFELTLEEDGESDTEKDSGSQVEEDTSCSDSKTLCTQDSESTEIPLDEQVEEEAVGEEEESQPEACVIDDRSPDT

Target: 3',5'-cyclic-AMP phosphodiesterase 4D (Homo sapiens, UniProt Q08499)
Assay: biochemical
Assay type: cell-based, Sf9

Q: With O=C(c1cc2cccnc2n1-c1ccnc(F)c1)N1CC(F)C1 as the compound, how does the IC50 read?
A: 1900 nM

Q: Which IC50 does the source give for O=C(c1nc2cccnc2n1-c1ccc(Cl)c(Cl)c1)N1CCC1 here?
A: 450 nM

Q: With COc1c(F)cc(-n2c(C(=O)N3CC(F)C3)cc3cccnc32)cc1F as the compound, how does the IC50 read?
A: 6300 nM

Q: With O=C(c1nc2ccccc2n1-c1ccc(Cl)c(Cl)c1)N1CC(F)C1 as the compound, how does the IC50 read?
A: 2000 nM

Q: Which IC50 does the source give for O=C(c1nc2cccnc2n1-c1ccc(Cl)c(Cl)c1)N1CC(F)(F)C1 here?
A: 880 nM
